# This is a selection; strong and weak results do not stand in their true shares. Some tests of the compounds listed are not included; inactive here does not mean inactive elsewhere. Calls of active or inactive are those of the source.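 Rule for the calls: active = mean inhibition across valid replicates above about 55% (limit read from the data); inconclusive = mean below that limit but half or more replicates reach it; inactive = mean below it, under half of replicates reach it.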
# Test: Trypanosoma cruzi replication blockers in host cells – luminescence, NIH3T3 host cells, primary screen (AID 1885);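 note: signal also drops with host cell toxicity which is not excluded here; 0% = plate median of DMSO wells and 100% = zero luminescence signal; higher percent means less beta-gal luminescence so fewer parasites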
# Settings: T. cruzi beta-gal in NIH3T3, luminescence, 90 h; stronger effect = higher value; concentration not given here
# Method in brief: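 Read-out: Parasite load inhibition, % | Test system: Mouse NIH/3T3 fibroblasts infected with β-gal-expressing T. cruzi Tulahuen C4 | Amount: 5,000 cells/well | Medium: DMEM, 2% fetal bovine serum | Signal: GalScreen β-gal luminescence, detergent lysis, 60 min | Timing: 3 h attach, ≥90 h co-culture | Also added: Tulahuen C4 trypomastigotes, 5000/well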
row,SMILES,inhibition
1,O=C(NCC1(N2CCCCC2)CCCCC1)c1cc(F)c(F)cc1Cl,inactive: 2.81%
2,C=CCN1CCN(CCOC(=O)C(O)(c2ccccc2)c2ccccc2)CC1,inactive: -0.26%
3,O=C(NCC1(N2CCCCC2)CCCCC1)c1cccc(Br)c1,inactive: 27.8%
4,Cc1cc(C(=O)NCC2(N3CCCCC3)CCCCC2)ccc1[N+](=O)[O-],inactive: -1.61%
5,CCN1CCCC(OC(=O)C2(O)c3ccccc3C=Cc3ccccc32)C1 (centres undefined),inactive: -8.49%
6,COc1ccc(C(=O)NCC2(N(C)C)CCCCC2)cc1,inactive: -4.49%
7,CN(C)C1CCCC1OC(=O)C(O)(c1ccccc1)c1ccccc1 (centres undefined),inactive: -7.65%
8,CN(C)c1ccc(C(=O)NCC2(N(C)C)CCCCC2)cc1,inactive: -3.79%
9,Cc1ccccc1C(=O)NCC1(N2CCCCC2)CCCCC1,inactive: 16.6%
10,CC(C)N1C(=O)CC2(CCN(CCOC(=O)C(O)(c3ccccc3)c3ccccc3)CC2)C1=O,inactive: -4.47%
11,COc1cc(SC)ccc1C(=O)NCC1(N(C)C)CCCCC1,inactive: 25.8%
12,CCN(CC)CC(C)C(C)OC(=O)C(O)(c1ccccc1)c1ccccc1 (centres undefined),inactive: -0.498%
13,Cc1ccc(C(=O)NCC2(N3CCCCC3)CCCCC2)cc1,inactive: 3.24%
14,O=C(NCC1(N2CCCCC2)CCCCC1)c1cc([N+](=O)[O-])ccc1Cl,inactive: -13%
15,CN1[C@@H]2CC[C@H]1CC(OC(=O)C(O)(c1ccccc1)c1ccccc1)C2 (some centres undefined),inactive: -10.5%
16,COc1ccc(Br)c(C(=O)NCC2(N3CCCCC3)CCCCC2)c1,inactive: 40.8%
17,CN(C)c1cccc(C(=O)NCC2(N(C)C)CCCCC2)c1,inactive: 4.17%
18,CC(C)Oc1ccc(C(=O)NCC2(N(C)C)CCCCC2)cc1,inactive: -19.6%
19,O=C(OC1CN2CCC1CC2)C(CO)(c1ccccc1)c1ccccc1 (centres undefined),inactive: -42.2%
20,COc1ccc(Cl)cc1C(=O)NCC1(N(C)C)CCCCC1,inactive: -9.2%
21,COc1cccc(C(=O)NCC2(N3CCCCC3)CCCCC2)c1,inactive: -7.71%
22,O=C(NCC1(N2CCCCC2)CCCCC1)c1cccc(Cl)c1,inactive: 11.2%
23,CN(C)C1(CNC(=O)c2ccc(Br)cc2)CCCCC1,inactive: 3.53%
24,COc1cc(C(=O)NCC2(N(C)C)CCCCC2)c([N+](=O)[O-])cc1OC,inactive: 0.936%
